This note sets out measurements from patent publication US10195155B2, “Drug carrier for tumor-specific targeted drug delivery and use thereof” (Institute of Biophysics, Chinese Academy of Sciences, priority 2014, dated 2019).

One data set has as its system HT-29 cells. Briefly: Laser confocal study of HFn-Dox entering the cell. The class given is cell-based, human. As to conditions: 1 μM Cy 5.5-HFn-Dox, 1 minute to 72 hours. From the text: The principle of chemotherapeutic drug Doxorubicin molecules killing tumor was that Doxorubicin molecules were embedded in the double helix of DNA after entering the cell nucleus to inhibit the replication and transcription of DNA, such that tumor cells were induced to apoptosis. That is, the prerequisite for Doxorubicin exerting an effect of killing tumor was being capable of entering the cell nucleus of a tumor cell. In order to study whether HFn-Dox can release Doxorubicin loaded therein and pass it into the cell nucleus in the process and after entering a cell, we carried out observation using fluorescence-labeled HFn-Dox and a laser confocal means.
A specific example was as follows. HFn-Dox nanoparticles were first subjected to Cy 5.5 modification. HT-29 cells growing on glass coverslips were cultured for 12 hour, and were incubated with 1 μM Cy 5.5-HFn-Dox in an incubator for 1 minute, 24 hours, 48 hours, and 72 hours respectively. After washing with PBS for three times, 4% paraformaldehyde was used for fixing for 5 minutes. 0.1% Triton X-100 was then used to permeabilize cells. After washing with PBS again, cells were blocked with 5% sheep serum at room temperature for 30 minutes. […] The protein shell in the HFn-Dox nanoparticle was labeled with Cy 5.5, a marker molecule LAMP-1 of the lysosome was labeled with Alexa-488; and fluorescence signal of Dox itself was observed. […]

The nature of data set [1]: Maximal tolerated dosage in healthy mice, single administration. Particulars: versus free Doxorubicin. The source says: In the therapy of a cancer patient, the dosage of administration and the number of administration were very important. However, bound by toxic side effects of chemotherapeutic drugs, the therapy of cancer usually became administration in a small amount at a high frequency.

The next data set deals with HT-29 implanted tumor. Briefly: Anti-tumor pharmacodynamics in nude mice bearing HT-29 implanted tumor. As to conditions: single tail vein dose; free Dox 5 mg/kg, Doxil 20 mg/kg.

Regarding “HFn: recombinant full heavy-chain human ferritin (H-ferritin), empty protein shell nanocarrier expressed in E. coli”, the “intracellular fate of the nanoparticle / protein shell” value in the data set on HT-29 cells was “transported into an endosome, and finally passed into a lysosome”. Besides, in data set [1], the “increase of tolerated dosage of mice to Dox” value was determined as 4 times. In addition, the “average survival time of tumor-bearing mice” value in the data set on HT-29 implanted tumor was 18 days.
